The test system of the assay is Zebra mussel. The assay can be described thus: Comparative 24-hour static exposure, LT50 of adult Zebra mussels (Example 5). Particulars: measured concentration 2.5 mg/L, about 20°C. The assay is classed as in vivo.

Substance Chlorine displayed an LT50 of over 24.0 h.
